Read-outs that look alike come from different tables or passages of the source.

Chains of the proteins cited; added tags and fusions are not shown. Residues count along the entry.
UniProt O96013, 321-572 limits assumed: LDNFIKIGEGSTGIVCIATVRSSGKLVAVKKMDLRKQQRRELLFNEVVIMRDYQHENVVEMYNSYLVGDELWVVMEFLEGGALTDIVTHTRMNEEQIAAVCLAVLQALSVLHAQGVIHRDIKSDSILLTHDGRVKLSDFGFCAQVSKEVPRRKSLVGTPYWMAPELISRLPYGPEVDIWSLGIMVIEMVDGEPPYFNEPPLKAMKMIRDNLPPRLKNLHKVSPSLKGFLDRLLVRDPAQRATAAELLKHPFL

Assay [1] deals with T1, PAK4 Kinase domain (PAK4 KD) (Homo sapiens, UniProt O96013).
T1 construct: Cloning, expression, and purification of recombinant PAK4 Kinase domain (PAK4 KD); His tag (pET28a(+)/pET24a(+), Ni-NTA purification) (N, cleaved yes); GST (pGST4.5, glutathione column) (N, cleaved yes); made in house; host or cells: E. coli BL21(DE3)
The assay can be described thus: PAK4 kinase domain enzymatic assay (PK/LDH-coupled, Ki). The format is biochemical. To be noted: Ki data.

Assay [2] addresses T2, PAK4 kinase activity in whole cells (TR-293-KDG, modified HEK 293) (Homo sapiens, UniProt O96013).
T2 construct: engineered to overexpress both GEF-H1b and the kinase domain (KD) of PAK4; expressed in transfected cells; host or cells: TR-293-KDG (modified HEK 293, Trex system, Invitrogen)
The assay is described as follows: PAK4 cellular assay: sandwich ELISA of PAK4-dependent phosphorylation of GEF-H1b in TR-293-KDG cells. The format is cell-based.

Consider `CN(C)C[C@@H](OC(=O)N1Cc2c(NC(=O)c3ccccc3)n[nH]c2C1(C)C)c1ccccc1` [Example 1, (1S)-2-(dimethylamino)-1-phenylethyl 3-(benzoylamino)-6,6-dimethyl-4,6-dihydropyrrolo[3,4-c]pyrazole-5(1H)-carboxylate], for which, in assay [1] (PAK4 Kinase Domain), affinity was put at a Ki of 10.1 nM. Besides, the EC50 (in general, the concentration that produces a half-maximal response) in assay [2] (PAK4 cellular assay, TR-293-KDG cells, 3-hour exposure, read-out: EC50) was 10.7 nM.
Consider `CN(C)CC(OC(=O)N1Cc2c(NC(=O)c3ccccc3)n[nH]c2C1(C)C)c1ccccc1` (stereo not shown) [Example 21, 2-(dimethylamino)-1-phenylethyl 3-(benzoylamino)-6,6-dimethyl-4,6-dihydropyrrolo[3,4-c]pyrazole-5(1H)-carboxylate], for which the Ki (in general, the dissociation constant of the complex between target and ligand, obtained from inhibition or displacement) in assay [1] worked out at 24.8 nM. The compound further yielded an EC50 in assay [2] (EC50) of 37.6 nM.
